# ChEMBL document CHEMBL4219029, “Impact of Target Warhead and Linkage Vector on Inducing Protein Degradation: Comparison of Bromodomain and Extra-Terminal (BET) Degraders Derived from Triazolodiazepine (JQ1) and Tetrahydroquinoline (I-BET726) BET Inhibitor Scaffolds” (J Med Chem, 2018)
# Protein sequences, listed by entry. Tags and fused reporters are not part of them.
# UniProt P40337, whole entry, looked up: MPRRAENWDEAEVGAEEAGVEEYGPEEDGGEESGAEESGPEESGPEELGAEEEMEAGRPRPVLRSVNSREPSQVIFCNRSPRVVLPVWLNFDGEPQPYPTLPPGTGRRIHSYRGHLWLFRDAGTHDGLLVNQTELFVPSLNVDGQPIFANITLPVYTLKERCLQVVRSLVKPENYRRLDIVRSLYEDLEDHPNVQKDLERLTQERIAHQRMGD
# UniProt Q15059, whole entry, looked up: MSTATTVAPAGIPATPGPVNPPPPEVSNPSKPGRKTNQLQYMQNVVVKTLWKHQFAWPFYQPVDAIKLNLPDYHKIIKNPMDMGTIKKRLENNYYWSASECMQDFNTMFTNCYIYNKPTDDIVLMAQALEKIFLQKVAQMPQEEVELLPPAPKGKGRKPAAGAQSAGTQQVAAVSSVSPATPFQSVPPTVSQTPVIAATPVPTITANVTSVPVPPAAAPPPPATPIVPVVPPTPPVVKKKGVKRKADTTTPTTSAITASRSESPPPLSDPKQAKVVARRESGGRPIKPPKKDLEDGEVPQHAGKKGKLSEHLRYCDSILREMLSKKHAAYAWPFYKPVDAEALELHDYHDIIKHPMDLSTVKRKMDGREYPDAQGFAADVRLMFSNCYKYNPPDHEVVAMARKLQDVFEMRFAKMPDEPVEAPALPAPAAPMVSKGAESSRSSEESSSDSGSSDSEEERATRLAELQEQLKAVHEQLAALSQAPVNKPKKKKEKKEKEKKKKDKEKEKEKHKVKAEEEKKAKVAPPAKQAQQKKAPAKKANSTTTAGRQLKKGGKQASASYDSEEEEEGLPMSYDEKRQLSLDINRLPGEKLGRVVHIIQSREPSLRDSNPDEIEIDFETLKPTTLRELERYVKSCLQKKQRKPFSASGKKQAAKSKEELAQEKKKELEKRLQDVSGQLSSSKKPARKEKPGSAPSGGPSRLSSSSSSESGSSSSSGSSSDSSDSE
# UniProt Q15369, whole entry, looked up: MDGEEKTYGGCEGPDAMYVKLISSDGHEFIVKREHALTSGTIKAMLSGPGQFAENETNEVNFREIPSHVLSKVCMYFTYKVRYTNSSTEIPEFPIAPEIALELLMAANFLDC
# UniProt P25440, whole entry, looked up: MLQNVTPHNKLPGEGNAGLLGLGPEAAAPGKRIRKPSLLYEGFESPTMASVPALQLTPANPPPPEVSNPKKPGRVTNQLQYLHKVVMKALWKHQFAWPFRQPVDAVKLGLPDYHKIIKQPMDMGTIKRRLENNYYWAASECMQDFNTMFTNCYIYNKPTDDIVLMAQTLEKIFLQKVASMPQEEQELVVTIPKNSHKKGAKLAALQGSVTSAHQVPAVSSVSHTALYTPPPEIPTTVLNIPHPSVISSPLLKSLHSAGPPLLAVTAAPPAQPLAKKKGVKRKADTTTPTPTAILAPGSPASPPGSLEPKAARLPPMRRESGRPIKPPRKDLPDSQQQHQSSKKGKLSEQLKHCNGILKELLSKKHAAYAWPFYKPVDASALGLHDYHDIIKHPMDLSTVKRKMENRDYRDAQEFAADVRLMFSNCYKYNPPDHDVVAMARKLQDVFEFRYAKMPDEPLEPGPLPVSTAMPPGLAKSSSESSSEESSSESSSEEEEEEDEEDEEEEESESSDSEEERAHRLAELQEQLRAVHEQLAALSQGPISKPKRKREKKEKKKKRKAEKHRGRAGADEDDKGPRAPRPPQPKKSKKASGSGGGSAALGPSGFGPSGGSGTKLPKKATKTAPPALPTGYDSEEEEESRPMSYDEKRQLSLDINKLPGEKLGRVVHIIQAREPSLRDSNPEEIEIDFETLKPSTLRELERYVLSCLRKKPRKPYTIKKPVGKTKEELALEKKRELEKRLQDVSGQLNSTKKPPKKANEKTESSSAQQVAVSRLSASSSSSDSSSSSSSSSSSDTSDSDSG
# Tests used:
# Type in all cases: cell-based
# [1] = target: T1, von Hippel-Lindau disease tumor suppressor/Bromodomain-containing protein 4 (Homo sapiens, UniProt O60885+P40337); assay: Proteolysis targeting chimera activity in human HeLa cells assessed as induction of VCB-mediated delivery of BRD4 short isoform for protein degradation by proteasome by measuring drug level causing 50% cellular protein depletion incubated for 24 hrs by Western blotting method
# [2] = target: T1, von Hippel-Lindau disease tumor suppressor/Bromodomain-containing protein 4; assay: Proteolysis targeting chimera activity in human HeLa cells assessed as induction of VCB-mediated delivery of BRD4 long isoform for protein degradation by proteasome by measuring drug level causing 50% cellular protein depletion incubated for 24 hrs by Western blotting method
# [3] = target: T2, von Hippel-Lindau disease tumor suppressor/Bromodomain-containing protein 3/Elongin-B/Elongin-C (Homo sapiens, UniProt Q15059+P40337+Q15370+Q15369); assay: Proteolysis targeting chimera activity in human HeLa cells assessed as induction of VCB-mediated delivery of BRD3 for protein degradation by proteasome at 1 to 10 uM incubated for 6 hrs by Western blotting method
# [4] = target: T2, von Hippel-Lindau disease tumor suppressor/Bromodomain-containing protein 3/Elongin-B/Elongin-C; assay: Proteolysis targeting chimera activity in human HeLa cells assessed as induction of VCB-mediated delivery of BRD3 for protein degradation by proteasome at 1 to 10 uM incubated for 24 hrs by Western blotting method
# [5] = target: T3, von Hippel-Lindau disease tumor suppressor/Bromodomain-containing protein 2/Elongin-B/Elongin-C (Homo sapiens) (UniProt P25440+P40337+Q15370+Q15369); assay: Proteolysis targeting chimera activity in human HeLa cells assessed as induction of VCB-mediated delivery of BRD2 for protein degradation by proteasome at 1 to 10 uM incubated for 6 hrs by Western blotting method
# [6] = target: T3, von Hippel-Lindau disease tumor suppressor/Bromodomain-containing protein 2/Elongin-B/Elongin-C (Homo sapiens); assay: Proteolysis targeting chimera activity in human HeLa cells assessed as induction of VCB-mediated delivery of BRD2 for protein degradation by proteasome at 1 to 10 uM incubated for 24 hrs by Western blotting method
Activity [1],Activity [2],Activity [3],Activity [4],Activity [5],Activity [6],SMILES
Dose-dependent effect,Dose-dependent effect,–,–,–,–,Cc1ncsc1-c1ccc(CNC(=O)[C@@H]2C[C@@H](O)CN2C(=O)[C@@H](NC(=O)COCCOCCOCCOCCNC(=O)C[C@@H]2N=C(c3ccc(Cl)cc3)c3c(sc(C)c3C)-n3c(C)nnc32)C(C)(C)C)cc1
–,–,inactive,inactive,inactive,inactive,CC(=O)N1c2ccc(-c3ccc(C(=O)NCCOCCOCCOCC(=O)N[C@H](C(=O)N4C[C@H](O)C[C@H]4C(=O)NCc4ccc(-c5scnc5C)cc4)C(C)(C)C)cc3)cc2[C@H](Nc2ccc(Cl)cc2)C[C@@H]1C

# Activity calls are given as the source filed them. No cut-off for these calls is given here.
